According to ChEMBL document CHEMBL1909525, “Synthesis and anticonvulsant activity of novel 2,6-diketopiperazine derivatives. Part 1: perhydropyrrole[1,2-a]pyrazines” (Eur J Med Chem, 2011):

Columns and labels:
Mus musculus = organism: Mus musculus; experiment: Protective index, ratio of TD50 for albino Carworth Farms No.1 mouse to ED50 for albino Carworth Farms No.1 mouse by 6Hz minimal clonic seizure test; assay type: functional
Summary of the method: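 Mouse 6 Hz (32 mA) quantification, compound given i.p. at the time of peak effect. Groups of at least eight mice at varied doses.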

Rattus norvegicus = organism: Rattus norvegicus; experiment: Protective index, ratio of TD50 for albino Sprague-Dawley rat to ED50 for albino Sprague-Dawley rat by maximal electroshock-induced seizure test; assay type: functional
[1] = Neurotoxicity in ip dosed albino Carworth Farms No.1 mouse assessed as motor impairment after 0.25 hrs by rotarod test; assay type: toxicity, organism-based; conditions: Carworth Farms No.1 (albino), in vivo
Summary of the method: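 Mouse quantification at the time of peak effect, compound given i.p. in 0.5% methylcellulose. Groups of at least eight mice received varied doses until at least two points fell between 100 and 0% response. PI = TD50/ED50 MES.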

Row | Compound | Ratio TD50/ED50 (Mus musculus) | Ratio TD50/ED50 (Rattus norvegicus) | TD50 at 0.25 h [1]
1 | CC[C@@H](C(N)=O)N1CCCC1=O | >25.8 |  | 
2 | CCC1(c2ccccc2)C(=O)NC(=O)NC1=O [PHENOBARBITAL] |  | 6.7 | 69 mg/kg
